1 compound from BigSolDB 2.1 can be followed below.

SMILES strings stand for the structures.

The conditions of the data set: in n-butanol, 308.15 K.

Consider `O=Cc1ccc([N+](=O)[O-])cc1`, for which the solubility (mole fraction) worked out at 0.0251.
